Reference: US20250228855A1

Sequences of proteins named here, by UniProt entry; tags and fusion partners are left off. Residues count along the entry.
UniProt P07814, 1007-1512 limits assumed: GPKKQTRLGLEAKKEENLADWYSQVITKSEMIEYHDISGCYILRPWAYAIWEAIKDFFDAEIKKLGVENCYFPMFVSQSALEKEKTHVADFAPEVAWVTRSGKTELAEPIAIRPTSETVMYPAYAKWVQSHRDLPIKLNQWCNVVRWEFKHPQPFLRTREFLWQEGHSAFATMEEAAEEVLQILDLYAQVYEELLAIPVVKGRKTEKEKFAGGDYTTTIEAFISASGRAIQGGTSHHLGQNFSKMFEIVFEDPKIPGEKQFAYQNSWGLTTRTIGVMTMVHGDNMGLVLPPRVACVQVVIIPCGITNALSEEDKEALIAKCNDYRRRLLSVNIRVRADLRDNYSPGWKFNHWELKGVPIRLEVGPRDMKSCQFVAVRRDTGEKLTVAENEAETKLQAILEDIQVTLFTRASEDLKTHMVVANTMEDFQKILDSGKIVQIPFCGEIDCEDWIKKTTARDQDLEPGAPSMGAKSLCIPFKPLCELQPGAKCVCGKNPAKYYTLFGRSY

Molecular target: HsProRS (Homo sapiens, UniProt P07814)
Assay: TR-FRET ligand displacement assay with tracer MAT379, HsProRS
Type: binding
[1] = read-out: HsProRS (KD [nM]) +proline, 100 μM Pro
[2] = read-out: HsProRS (KD [nM]) −, no proline, no ATP
[3] = read-out: HsProRS (KD [nM]) +proline, 100 μM Pro, tested form: HBr
[4] = read-out: HsProRS (KD [nM]) −, no proline, no ATP, tested form: HBr

SMILES | Kd [1] [nM] | Kd [2] [nM] | Kd [3] [nM] | Kd [4] [nM]
CC(C)(C)OC(=O)N1CCC[C@H](OC(=O)NS(=O)(=O)NC2CCN(C(=O)Nc3nccnc3C(=O)NC3Cc4ccccc4C3)CC2)[C@H]1CC(=O)Cn1cnc2cc(Br)c(Cl)cc2c1=O (relative stereo) | 658 | 216 |  | 
CC(C)(C)OC(=O)N1CCC[C@H](OC(=O)NS(=O)(=O)NCC2CCN(C(=O)Nc3nccnc3C(=O)NC3Cc4ccccc4C3)CC2)[C@H]1CC(=O)Cn1cnc2cc(Br)c(Cl)cc2c1=O (relative stereo) | 609 | 720 |  | 
O=C(C[C@H]1NCCC[C@@H]1OC(=O)NS(=O)(=O)NCC1CCN(C(=O)Nc2nccnc2C(=O)NC2Cc3ccccc3C2)CC1)Cn1cnc2cc(Br)c(Cl)cc2c1=O (relative stereo) |  |  | 3.49 | 0.35
O=C(C[C@H]1NCCC[C@@H]1OC(=O)NS(=O)(=O)NC1CCN(C(=O)Nc2nccnc2C(=O)NC2Cc3ccccc3C2)CC1)Cn1cnc2cc(Br)c(Cl)cc2c1=O (relative stereo) |  |  | 6.63 | 0.367

Where two headings read alike, the source gives them in different places.
